Binding of CDR-mutated scFvs to a peptide of the spike HR2 region

Target peptide (SARS-CoV-2 spike, HR2 region): PDVDLGDISGINAS

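The starting antibody came from a phage panning campaign against this peptide. Library AAYL51 holds single substitutions and randomly drawn double and triple substitutions in the CDRs. The scFvs were displayed on barcoded MATa yeast, the peptide on MATalpha yeast. Binding brings cells together so that they mate, and sequencing counts the barcode pairs among the diploids. Read counts were normalised to the haploid input and turned into Kd by a linear fit to BCL2-family pairs of known affinity, for each replicate. Mating was done three times.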

Ab-91 is the parent antibody, in scFv form: VL, then a (GGGGS)3 linker, then VH. The light chain is unchanged in all variants.
VL: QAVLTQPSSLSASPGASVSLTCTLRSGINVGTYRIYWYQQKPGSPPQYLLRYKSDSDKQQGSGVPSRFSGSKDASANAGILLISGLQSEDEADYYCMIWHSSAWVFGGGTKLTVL
VH: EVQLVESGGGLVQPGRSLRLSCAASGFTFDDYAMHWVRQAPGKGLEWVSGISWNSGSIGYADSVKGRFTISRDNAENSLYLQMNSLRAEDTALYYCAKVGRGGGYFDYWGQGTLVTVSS

Changes read parent residue, position, new residue, counted from the first residue of the VH shown. All variants listed here change T28 of the VH, counted from its first residue. Scale: log10 of Kd in nM, estimated from mating counts; low values are strong binders. Averages over replicates are reported, and they cover detected replicates only. "nd" marks a missing value. The strain was present, yet no cells mated with the target were sequenced in any replicate, which points to weak or no binding.

Variant T28W+G56D+K65E showed 0.68 (3 of 3 replicates; controls 6 of 9).
Variant T28Q+S57A showed 1.42 (3 of 3 replicates; controls 4 of 9).
Variant T28A+D30M showed 1.00 (3 of 3 replicates; controls 4 of 9).
Variant T28L+D30M+S63I showed 2.26 (3 of 3 replicates; controls 0 of 9).
Variant T28W+V99S+G104T showed 2.98 (1 of 3 replicates; controls 0 of 9).
Variant T28F+D31L+H35P showed 3.58 (1 of 3 replicates; controls 0 of 9).
Variant T28E+Y32M+S63M showed 2.97 (3 of 3 replicates; controls 4 of 9).
Variant T28H+D30I+D62S showed nd (0 of 3 replicates; controls 1 of 9).
Variant T28H+D30A+H35G showed 4.75 (2 of 3 replicates; controls 5 of 9).
Variant F27G+T28C+V99E showed 0.82 (3 of 3 replicates; controls 0 of 9).
Variant T28D+D62F+V64N showed 5.02 (3 of 3 replicates; controls 8 of 9).
Variant T28E+H35D+G104Y showed 4.67 (2 of 3 replicates; controls 3 of 9).
Variant T28S+S52C+D62K showed 5.54 (3 of 3 replicates; controls 6 of 9).
Variant T28G+I51M+Y105K showed nd (0 of 3 replicates; controls 3 of 9).
Variant T28Y+W53N+K65V showed 3.88 (1 of 3 replicates; controls 0 of 9).
Variant T28L+Y32I+V99A showed 5.09 (1 of 3 replicates; controls 1 of 9).
Variant T28G+F29N+G59T showed nd (0 of 3 replicates; controls 1 of 9).
Variant T28R+A33R+S57P showed 4.29 (2 of 3 replicates; controls 2 of 9).
Variant T28Y+I51S+F106E showed 4.91 (2 of 3 replicates; controls 2 of 9).
Variant T28L+D31T+D62P showed 5.21 (3 of 3 replicates; controls 7 of 9).
Variant T28Y+G102D+G104W showed 4.32 (3 of 3 replicates; controls 1 of 9).
Variant T28N+N54T+Y108V showed 1.48 (3 of 3 replicates; controls 6 of 9).
Variant T28K+D31W+I58F showed 3.67 (2 of 3 replicates; controls 3 of 9).
Variant T28N+V99L+F106I showed nd (0 of 3 replicates; controls 0 of 9).
Variant T28Q+F29S+I58W showed 4.26 (1 of 3 replicates; controls 1 of 9).
Variant T28E showed 2.05 (3 of 3 replicates; controls 1 of 9).
Variant T28N+A33I+Y60R showed 5.25 (2 of 3 replicates; controls 3 of 9).
Variant T28Y+F29Y+S63N showed 2.61 (3 of 3 replicates; controls 2 of 9).
Variant T28G+G59Y+F106R showed 3.99 (1 of 3 replicates; controls 1 of 9).
Variant F27H+T28E+D30Q showed 2.25 (3 of 3 replicates; controls 3 of 9).
Variant T28F+D107L showed 4.40 (1 of 3 replicates; controls 4 of 9).
Variant T28M+G50K+A61G showed 4.46 (1 of 3 replicates; controls 2 of 9).
Variant F27W+T28D+D62K showed nd (0 of 3 replicates; controls 0 of 9).
Variant F27R+T28Q+F106I showed nd (0 of 3 replicates; controls 0 of 9).
Variant T28N+S52W+S57E showed nd (0 of 3 replicates; controls 0 of 9).
Variant T28W+R101V+G102R showed nd (0 of 3 replicates; controls 2 of 9).
Variant T28R+R101W+G104F showed nd (0 of 3 replicates; controls 2 of 9).
Variant T28Q+V99I+Y108I showed 0.44 (3 of 3 replicates; controls 3 of 9).
Variant T28R+I51Q showed 5.31 (3 of 3 replicates; controls 8 of 9).
Variant T28N+S63F+K65P showed 4.96 (2 of 3 replicates; controls 2 of 9).
Variant T28R+M34C+G59I showed nd (0 of 3 replicates; controls 1 of 9).

The last 3 entries again:

T28R+I51Q: 5.31 (3 of 3 replicates; controls 8 of 9).
T28N+S63F+K65P: 4.96 (2 of 3 replicates; controls 2 of 9).
T28R+M34C+G59I: nd (0 of 3 replicates; controls 1 of 9).

Background: pairings of library AAYL51 with three empty control strains gave a value in 21% of cases (median 4.54, 5th percentile 3.26). Values in that range, when seen in few replicates, are hard to tell from nonspecific mating. The control count says in how many pairings with the empty strains this scFv gave a signal. For reference, the parent read 1.86 as the reference entry and 0.88 as a member of this library.

From the AlphaSeq antibody data of Engelhart et al. 2022 (doi:10.1038/s41597-022-01779-4), copy in the FLAb collection.